Sequences of proteins named here, by UniProt entry; tags and fusion partners are left off. A change or cut given only in a name is not applied to a line headed by its entry.
UniProt P37231: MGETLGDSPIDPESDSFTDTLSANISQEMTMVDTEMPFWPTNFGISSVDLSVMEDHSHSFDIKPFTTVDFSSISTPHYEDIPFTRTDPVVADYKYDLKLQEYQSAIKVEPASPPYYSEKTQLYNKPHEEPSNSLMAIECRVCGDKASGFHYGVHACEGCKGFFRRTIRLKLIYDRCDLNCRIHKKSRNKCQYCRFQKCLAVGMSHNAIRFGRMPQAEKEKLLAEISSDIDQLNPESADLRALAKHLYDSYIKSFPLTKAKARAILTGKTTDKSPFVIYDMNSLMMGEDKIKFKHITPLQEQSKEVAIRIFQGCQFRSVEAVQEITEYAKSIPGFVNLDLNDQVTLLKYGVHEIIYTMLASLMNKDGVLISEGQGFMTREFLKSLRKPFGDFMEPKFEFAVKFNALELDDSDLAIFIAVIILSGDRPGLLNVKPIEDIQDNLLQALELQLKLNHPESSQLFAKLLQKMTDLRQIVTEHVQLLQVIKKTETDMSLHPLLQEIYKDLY

According to ChEMBL document CHEMBL1147659, “Structure-based drug design of a novel family of PPARgamma partial agonists: virtual screening, X-ray crystallography, and in vitro/in vivo biological activities” (J Med Chem, 2006):

Target: Peroxisome proliferator-activated receptor gamma (Homo sapiens, UniProt P37231)
Assay: Displacement of [3H]rosiglitazone from PPARgamma by SPA

O=S(=O)(Nc1cc(-c2cccs2)nn1-c1ccc(F)cc1)c1cc(C(F)(F)F)cc(C(F)(F)F)c1
IC50: 22.7 nM
